Reference: patent publication US10087225B2, “Formulation of MK2 inhibitor peptides” (MOERAE MATRIX, INC., priority 2015, dated 2018)

Tests used:
Assay in all cases: Kinase Profiling Assay
Assay type in all cases: biochemical
EGFR(h) = EGFR(h) (Homo sapiens, UniProt P00533)
CHK2(h) = CHK2(h) (Homo sapiens, UniProt O96017)
Aurora-A(h) = Aurora-A(h) (Homo sapiens, UniProt O14965)
AMPKa2(h) = AMPKa2(h) (Homo sapiens, UniProt P54646)
IRAK1(h) = IRAK1(h) (Homo sapiens, UniProt P51617)
eEF-2K(h) = eEF-2K(h) (Homo sapiens, UniProt O00418)
Pyk2(h) = Pyk2(h) (Homo sapiens, UniProt Q14289)
PDGFRα(h) = PDGFRα(h) (Homo sapiens, UniProt P16234)
EGFR(T790M,L858R)(h) = EGFR(T790M,L858R)(h) (Homo sapiens, UniProt P00533, L858R/T790M)
Met(M1268T)(h) = Met(M1268T)(h) (Homo sapiens, UniProt P08581, M1250T)
Rsk3(h) = Rsk3(h) (Homo sapiens, UniProt Q15349)
Plk1(h) = Plk1(h) (Homo sapiens, UniProt P53350)
Arg(h) = Arg(h) (Homo sapiens, UniProt P42684)
PKCη(h) = PKCη(h) (Homo sapiens, UniProt P24723)
Src(T341M)(h) = Src(T341M)(h) (Homo sapiens, UniProt P12931, T341M)
HIPK3(h) = HIPK3(h) (Homo sapiens, UniProt Q9H422)
FGFR2(h) = FGFR2(h) (Homo sapiens, UniProt P21802)
PKBγ(h) = PKBγ(h) (Homo sapiens, UniProt Q9Y243)
Ab1(H396P)(h) = Ab1(H396P)(h) (Homo sapiens, UniProt P00519, H396P)
PAK5(h) = PAK5(h) (Homo sapiens, UniProt Q9P286)
CK1γ1(h) = CK1γ1(h) (Homo sapiens, UniProt Q9HCP0)
PKA(h) = PKA(h) (Homo sapiens, UniProt P17612)
GSK3α(h) = GSK3α(h) (Homo sapiens, UniProt P49840)
mTOR(h) = mTOR(h) (Homo sapiens, UniProt P42345)
PDGFRβ(h) = PDGFRβ(h) (Homo sapiens, UniProt P09619)
MST1(h) = MST1(h) (Homo sapiens, UniProt Q13043)
GRK5(h) = GRK5(h) (Homo sapiens, UniProt P34947)
PKCβII(h) = PKCβII(h) (Homo sapiens, UniProt P05771)
Lck(h) activated = Lck(h) activated (Homo sapiens, UniProt P06239)
Ab1(Q252H)(h) = Ab1(Q252H)(h) (Homo sapiens, UniProt P00519, Q252H)
DDR2(h) = DDR2(h) (Homo sapiens, UniProt Q16832)
CDK2/cyclinA(h) = CDK2/cyclinA(h) (Homo sapiens, UniProt P24941)
CaMKIV(h) = CaMKIV(h) (Homo sapiens, UniProt Q16566)
MARK1(h) = MARK1(h) (Homo sapiens, UniProt Q9P0L2)
Flt3(h) = Flt3(h) (Homo sapiens, UniProt P36888)
FAK(h) = FAK(h) (Homo sapiens, UniProt Q05397)
Pim-1(h) = Pim-1(h) (Homo sapiens, UniProt P11309)
CLK2(h) = CLK2(h) (Homo sapiens, UniProt P49760)
Ros(h) = Ros(h) (Homo sapiens, UniProt P08922)
MAPK2(h) = MAPK2(h) (Homo sapiens, UniProt P28482)

`CC(C)C[C@H](NC(=O)[C@H](C)NC(=O)[C@H](CCCCN)NC(=O)[C@H](C)NC(=O)[C@H](CCCNC(=N)N)NC(=O)[C@H](C)NC(=O)[C@H](CCC(N)=O)NC(=O)[C@H](CCCNC(=N)N)NC(=O)[C@H](C)NC(=O)[C@H](C)NC(=O)[C@H](C)NC(=O)[C@H](CCCNC(=N)N)NC(=O)[C@H](C)NC(=O)[C@@H](N)Cc1ccc(O)cc1)C(=O)N[C@@H](C)C(=O)N[C@@H](CCCNC(=N)N)C(=O)N[C@@H](CCC(N)=O)C(=O)N[C@@H](CC(C)C)C(=O)NCC(=O)N[C@H](C(=O)N[C@@H](C)C(=O)N[C@@H](C)C(=O)O)C(C)C` [MMI-0100] showed an activity at 100 µM (EGFR(h)) of 95%, an activity at 100 µM (CHK2(h)) of 104% and an activity at 100 µM (Aurora-A(h)) of 120%. It also gave an activity at 100 µM (AMPKa2(h)) of 121%, an activity at 100 µM (IRAK1(h)) of 97% and an activity at 100 µM (eEF-2K(h)) of 113%. The activity at 100 µM (Pyk2(h)) was 113%, the activity at 100 µM (PDGFRα(h)) was 104% and the activity at 100 µM (EGFR(T790M,L858R)(h)) was 93%. The activity at 100 µM (Met(M1268T)(h)) was 114%, the activity at 100 µM (Rsk3(h)) was 76% and the activity at 100 µM (Plk1(h)) was 109%. For the same compound, the activity at 100 µM (Arg(h)) was 89%, the activity at 100 µM (PKCη(h)) was 105% and the activity at 100 µM (Src(T341M)(h)) was 98%. The activity at 100 µM (HIPK3(h)) was 105%, the activity at 100 µM (FGFR2(h)) was 49% and the activity at 100 µM (PKBγ(h)) was 105%. For the same compound, the activity at 100 µM (Ab1(H396P)(h)) was 130%, the activity at 100 µM (PAK5(h)) was 97% and the activity at 100 µM (CK1γ1(h)) was 110%. The activity at 100 µM (PKA(h)) was 138%, the activity at 100 µM (GSK3α(h)) was 183% and the activity at 100 µM (mTOR(h)) was 102%. For the same compound, the activity at 100 µM (PDGFRβ(h)) was 116%, the activity at 100 µM (MST1(h)) was 85% and the activity at 100 µM (GRK5(h)) was 117%. The activity at 100 µM (PKCβII(h)) was 102%, the activity at 100 µM (Lck(h) activated) was 106% and the activity at 100 µM (Ab1(Q252H)(h)) was 105%. For the same compound, the activity at 100 µM (DDR2(h)) was 105%, the activity at 100 µM (CDK2/cyclinA(h)) was 97% and the activity at 100 µM (CaMKIV(h)) was 87%. For the same compound, the activity at 100 µM (MARK1(h)) was 109%, the activity at 100 µM (Flt3(h)) was 104% and the activity at 100 µM (FAK(h)) was 98%. It also gave an activity at 100 µM (Pim-1(h)) of 44%, an activity at 100 µM (CLK2(h)) of 88% and an activity at 100 µM (Ros(h)) of 107%. For the same compound, the activity at 100 µM (MAPK2(h)) was 98%.
